According to patent publication US20250145687A1, “MODIFIED LIGAND-GATED ION CHANNELS AND METHODS OF USE” (Howard Hughes Medical Institute, priority 2022, published 2025):
Like-named read-outs stand apart in the source and are kept apart here.

Chains of the proteins cited; added tags and fusions are not shown. A line that says so, or that is headed by a name, gives the form on record, which may keep a tag or linker.
UniProt P36544, with tags, fused parts or gaps L131G/Q139L/H163F/Y217F/T225I/M226I limits assumed: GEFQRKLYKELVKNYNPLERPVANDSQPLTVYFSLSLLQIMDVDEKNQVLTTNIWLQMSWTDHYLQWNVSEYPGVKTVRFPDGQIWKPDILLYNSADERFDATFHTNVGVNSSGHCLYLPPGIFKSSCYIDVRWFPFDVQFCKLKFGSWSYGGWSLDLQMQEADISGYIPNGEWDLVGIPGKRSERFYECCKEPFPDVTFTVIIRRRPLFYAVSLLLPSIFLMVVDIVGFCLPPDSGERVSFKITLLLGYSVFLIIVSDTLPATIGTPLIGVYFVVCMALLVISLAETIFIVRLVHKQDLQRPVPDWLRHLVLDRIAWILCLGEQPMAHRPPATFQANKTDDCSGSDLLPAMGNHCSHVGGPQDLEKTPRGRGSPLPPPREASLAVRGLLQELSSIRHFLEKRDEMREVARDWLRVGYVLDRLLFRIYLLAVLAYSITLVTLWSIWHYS
UniProt P36544, with tags, fused parts or gaps L131G/Q139L/H163T/Y217F/T225I/M226I limits assumed: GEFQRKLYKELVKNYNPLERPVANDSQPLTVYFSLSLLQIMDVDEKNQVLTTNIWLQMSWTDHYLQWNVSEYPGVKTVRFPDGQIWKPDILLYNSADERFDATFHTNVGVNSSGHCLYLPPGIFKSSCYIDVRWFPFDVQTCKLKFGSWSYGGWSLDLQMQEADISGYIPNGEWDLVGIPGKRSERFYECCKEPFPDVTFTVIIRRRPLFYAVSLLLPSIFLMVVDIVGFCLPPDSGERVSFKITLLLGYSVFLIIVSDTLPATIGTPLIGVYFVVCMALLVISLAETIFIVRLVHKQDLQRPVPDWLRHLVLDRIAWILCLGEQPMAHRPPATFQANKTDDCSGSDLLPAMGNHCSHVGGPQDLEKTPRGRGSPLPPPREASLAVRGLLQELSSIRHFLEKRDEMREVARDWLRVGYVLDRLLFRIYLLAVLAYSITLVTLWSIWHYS
UniProt P36544, with tags, fused parts or gaps L131G/Q139L/H163T/S172A/Y217F/T225I/M226I limits assumed: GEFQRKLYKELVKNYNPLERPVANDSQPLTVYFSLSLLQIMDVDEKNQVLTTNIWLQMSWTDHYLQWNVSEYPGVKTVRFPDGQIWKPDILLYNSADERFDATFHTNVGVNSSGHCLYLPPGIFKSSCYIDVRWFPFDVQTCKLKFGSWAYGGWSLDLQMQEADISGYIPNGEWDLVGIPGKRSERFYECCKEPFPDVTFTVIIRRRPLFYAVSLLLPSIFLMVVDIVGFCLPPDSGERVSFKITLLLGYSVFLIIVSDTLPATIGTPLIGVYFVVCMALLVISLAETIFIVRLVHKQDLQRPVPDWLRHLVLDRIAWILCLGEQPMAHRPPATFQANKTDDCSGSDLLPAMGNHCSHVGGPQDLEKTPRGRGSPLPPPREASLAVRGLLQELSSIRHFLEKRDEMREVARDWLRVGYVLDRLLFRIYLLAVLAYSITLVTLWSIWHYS
UniProt P36544, with tags, fused parts or gaps L131G/Q139L/H163V/Y217F/T225I/M226I limits assumed: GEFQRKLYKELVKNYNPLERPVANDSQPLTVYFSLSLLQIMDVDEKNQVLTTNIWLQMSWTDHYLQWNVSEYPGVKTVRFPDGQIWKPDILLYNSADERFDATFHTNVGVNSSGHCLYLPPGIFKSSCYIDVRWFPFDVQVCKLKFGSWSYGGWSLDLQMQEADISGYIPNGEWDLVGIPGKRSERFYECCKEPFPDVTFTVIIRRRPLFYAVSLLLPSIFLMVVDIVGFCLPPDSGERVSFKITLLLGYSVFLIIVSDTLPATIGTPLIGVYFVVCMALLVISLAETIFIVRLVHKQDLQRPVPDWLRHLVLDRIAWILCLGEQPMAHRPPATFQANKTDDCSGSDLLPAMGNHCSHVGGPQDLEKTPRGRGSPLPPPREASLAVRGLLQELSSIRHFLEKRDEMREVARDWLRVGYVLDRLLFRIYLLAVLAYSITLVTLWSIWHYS
UniProt P36544, with tags, fused parts or gaps L131G/Q139L/H163S/Y217F/T225I/M226I limits assumed: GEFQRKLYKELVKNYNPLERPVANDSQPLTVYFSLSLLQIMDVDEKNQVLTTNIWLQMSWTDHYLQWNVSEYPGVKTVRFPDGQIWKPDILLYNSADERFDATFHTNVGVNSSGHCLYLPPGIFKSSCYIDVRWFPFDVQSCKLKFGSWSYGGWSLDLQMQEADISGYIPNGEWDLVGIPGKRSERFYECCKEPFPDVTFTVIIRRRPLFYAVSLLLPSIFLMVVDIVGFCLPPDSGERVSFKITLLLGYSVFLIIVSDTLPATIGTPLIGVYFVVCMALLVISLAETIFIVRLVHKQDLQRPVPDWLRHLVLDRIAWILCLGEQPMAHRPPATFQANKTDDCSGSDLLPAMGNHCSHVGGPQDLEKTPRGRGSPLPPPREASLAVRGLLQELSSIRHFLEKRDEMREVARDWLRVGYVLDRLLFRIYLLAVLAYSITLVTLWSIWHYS
UniProt P36544, with tags, fused parts or gaps L131G/Q139L/S172V/Y217F/T225I/M226I limits assumed: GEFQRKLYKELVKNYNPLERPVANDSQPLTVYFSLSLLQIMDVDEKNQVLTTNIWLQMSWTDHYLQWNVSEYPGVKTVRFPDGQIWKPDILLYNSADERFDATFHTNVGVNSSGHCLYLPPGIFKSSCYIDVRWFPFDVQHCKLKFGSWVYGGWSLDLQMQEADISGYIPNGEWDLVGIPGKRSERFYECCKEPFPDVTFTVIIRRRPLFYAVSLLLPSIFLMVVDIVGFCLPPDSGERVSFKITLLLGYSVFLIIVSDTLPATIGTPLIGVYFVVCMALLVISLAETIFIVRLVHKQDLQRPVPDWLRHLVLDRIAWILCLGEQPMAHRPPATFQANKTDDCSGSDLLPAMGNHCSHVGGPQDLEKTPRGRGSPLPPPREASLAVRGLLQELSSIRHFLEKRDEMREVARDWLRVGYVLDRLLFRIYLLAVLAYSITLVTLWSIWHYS
UniProt P36544, with tags, fused parts or gaps L131G/Q139L/V154I/R155Y/W156N/Y217F/T225I/M226I limits assumed: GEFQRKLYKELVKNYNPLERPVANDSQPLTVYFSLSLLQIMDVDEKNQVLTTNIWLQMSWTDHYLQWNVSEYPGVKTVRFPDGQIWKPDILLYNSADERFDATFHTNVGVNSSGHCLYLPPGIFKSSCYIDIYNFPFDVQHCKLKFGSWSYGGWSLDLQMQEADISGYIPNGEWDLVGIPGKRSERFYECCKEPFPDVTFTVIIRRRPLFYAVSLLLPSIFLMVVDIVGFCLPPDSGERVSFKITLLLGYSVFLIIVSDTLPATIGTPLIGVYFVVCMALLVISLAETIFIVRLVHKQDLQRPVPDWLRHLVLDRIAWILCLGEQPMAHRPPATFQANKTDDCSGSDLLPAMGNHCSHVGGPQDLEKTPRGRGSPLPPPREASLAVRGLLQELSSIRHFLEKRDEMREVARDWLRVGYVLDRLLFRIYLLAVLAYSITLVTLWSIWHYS
UniProt P36544, with tags, fused parts or gaps L131G/Q139L/W171F/T225I/M226I limits assumed: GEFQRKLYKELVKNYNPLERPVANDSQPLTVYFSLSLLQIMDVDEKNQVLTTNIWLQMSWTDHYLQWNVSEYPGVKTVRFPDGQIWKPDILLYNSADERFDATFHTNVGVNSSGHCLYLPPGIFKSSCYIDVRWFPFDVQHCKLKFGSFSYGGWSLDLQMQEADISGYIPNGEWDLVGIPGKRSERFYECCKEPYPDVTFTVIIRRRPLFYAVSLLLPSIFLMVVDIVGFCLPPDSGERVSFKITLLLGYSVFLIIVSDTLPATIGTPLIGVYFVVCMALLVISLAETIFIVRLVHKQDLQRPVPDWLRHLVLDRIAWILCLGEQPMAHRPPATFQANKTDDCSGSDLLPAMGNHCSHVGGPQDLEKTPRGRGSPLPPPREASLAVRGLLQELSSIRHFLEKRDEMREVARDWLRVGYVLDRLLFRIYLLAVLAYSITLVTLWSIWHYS
UniProt P36544, with tags, fused parts or gaps L131G/Q139L/H163K/Y217F/T225I/M226I limits assumed: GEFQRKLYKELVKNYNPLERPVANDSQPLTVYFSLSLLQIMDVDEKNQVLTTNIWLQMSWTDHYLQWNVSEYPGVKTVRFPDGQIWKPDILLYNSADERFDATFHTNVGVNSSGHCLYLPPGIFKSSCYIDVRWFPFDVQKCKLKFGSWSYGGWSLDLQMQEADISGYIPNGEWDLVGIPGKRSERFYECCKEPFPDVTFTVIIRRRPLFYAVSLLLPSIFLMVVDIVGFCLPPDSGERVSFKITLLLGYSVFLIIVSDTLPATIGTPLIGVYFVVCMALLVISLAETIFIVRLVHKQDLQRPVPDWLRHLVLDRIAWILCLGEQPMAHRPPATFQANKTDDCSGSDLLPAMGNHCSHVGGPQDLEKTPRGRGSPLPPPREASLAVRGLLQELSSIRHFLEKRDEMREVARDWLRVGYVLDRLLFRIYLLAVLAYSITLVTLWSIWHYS
UniProt P36544, with tags, fused parts or gaps L131G/Q139L/W156N/H163T/Y217F/T225I/M226I limits assumed: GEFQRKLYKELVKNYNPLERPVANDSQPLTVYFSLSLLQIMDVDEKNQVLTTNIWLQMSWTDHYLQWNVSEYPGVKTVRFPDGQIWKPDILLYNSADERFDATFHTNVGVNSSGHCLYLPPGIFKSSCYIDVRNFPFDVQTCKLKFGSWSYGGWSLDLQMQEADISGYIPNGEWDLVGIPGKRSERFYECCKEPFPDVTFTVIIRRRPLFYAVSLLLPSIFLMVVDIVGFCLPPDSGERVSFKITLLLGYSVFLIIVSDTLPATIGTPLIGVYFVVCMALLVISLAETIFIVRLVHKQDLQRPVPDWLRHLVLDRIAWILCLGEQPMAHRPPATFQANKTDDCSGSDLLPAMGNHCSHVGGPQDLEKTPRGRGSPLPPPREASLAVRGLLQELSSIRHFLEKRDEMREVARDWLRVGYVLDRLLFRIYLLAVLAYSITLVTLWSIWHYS
UniProt P36544, with tags, fused parts or gaps L131G/Q139L/V154I/R155Y/W156N/S172V/Y217F/T225I/M226I limits assumed: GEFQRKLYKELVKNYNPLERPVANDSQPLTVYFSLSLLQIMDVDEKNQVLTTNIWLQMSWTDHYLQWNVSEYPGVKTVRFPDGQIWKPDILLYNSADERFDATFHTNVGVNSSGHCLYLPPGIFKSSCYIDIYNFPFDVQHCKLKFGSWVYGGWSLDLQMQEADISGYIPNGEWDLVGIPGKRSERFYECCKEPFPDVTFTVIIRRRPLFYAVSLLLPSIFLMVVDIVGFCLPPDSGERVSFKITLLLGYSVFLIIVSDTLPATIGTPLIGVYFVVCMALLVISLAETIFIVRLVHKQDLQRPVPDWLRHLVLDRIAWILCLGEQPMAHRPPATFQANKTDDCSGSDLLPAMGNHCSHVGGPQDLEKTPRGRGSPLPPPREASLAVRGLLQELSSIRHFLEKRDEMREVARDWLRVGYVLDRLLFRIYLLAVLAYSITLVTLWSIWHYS
UniProt P36544, with tags, fused parts or gaps L131G/Q139L/S172I/Y217F/T225I/M226I limits assumed: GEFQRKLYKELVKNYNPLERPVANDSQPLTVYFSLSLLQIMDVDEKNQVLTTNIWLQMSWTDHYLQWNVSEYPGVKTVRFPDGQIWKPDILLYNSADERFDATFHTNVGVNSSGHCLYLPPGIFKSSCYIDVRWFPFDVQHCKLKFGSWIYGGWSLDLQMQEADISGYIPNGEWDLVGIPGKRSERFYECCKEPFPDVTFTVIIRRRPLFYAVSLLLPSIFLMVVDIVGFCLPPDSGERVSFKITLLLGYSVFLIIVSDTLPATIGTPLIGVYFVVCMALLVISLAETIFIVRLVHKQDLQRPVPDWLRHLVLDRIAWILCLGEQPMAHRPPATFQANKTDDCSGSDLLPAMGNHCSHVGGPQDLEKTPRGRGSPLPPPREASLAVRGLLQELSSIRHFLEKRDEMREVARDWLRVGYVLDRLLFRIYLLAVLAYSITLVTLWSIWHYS
UniProt P36544, with tags, fused parts or gaps L131G/Q139L/H163D/Y217F/T225I/M226I limits assumed: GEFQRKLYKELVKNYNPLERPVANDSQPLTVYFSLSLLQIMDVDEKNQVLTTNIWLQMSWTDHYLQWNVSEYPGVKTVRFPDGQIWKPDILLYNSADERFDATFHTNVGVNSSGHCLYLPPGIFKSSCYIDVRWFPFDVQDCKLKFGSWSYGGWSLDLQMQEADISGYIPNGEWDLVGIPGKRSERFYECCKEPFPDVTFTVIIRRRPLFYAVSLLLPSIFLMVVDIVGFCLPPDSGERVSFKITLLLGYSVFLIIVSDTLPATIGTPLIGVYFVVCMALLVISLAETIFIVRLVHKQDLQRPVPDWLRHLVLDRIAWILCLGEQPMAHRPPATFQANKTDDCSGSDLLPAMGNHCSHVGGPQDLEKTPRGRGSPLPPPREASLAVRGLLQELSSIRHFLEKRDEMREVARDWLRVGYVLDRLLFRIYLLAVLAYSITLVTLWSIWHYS
UniProt P36544, with tags, fused parts or gaps L131G/Q139L/H163N/Y217F/T225I/M226I limits assumed: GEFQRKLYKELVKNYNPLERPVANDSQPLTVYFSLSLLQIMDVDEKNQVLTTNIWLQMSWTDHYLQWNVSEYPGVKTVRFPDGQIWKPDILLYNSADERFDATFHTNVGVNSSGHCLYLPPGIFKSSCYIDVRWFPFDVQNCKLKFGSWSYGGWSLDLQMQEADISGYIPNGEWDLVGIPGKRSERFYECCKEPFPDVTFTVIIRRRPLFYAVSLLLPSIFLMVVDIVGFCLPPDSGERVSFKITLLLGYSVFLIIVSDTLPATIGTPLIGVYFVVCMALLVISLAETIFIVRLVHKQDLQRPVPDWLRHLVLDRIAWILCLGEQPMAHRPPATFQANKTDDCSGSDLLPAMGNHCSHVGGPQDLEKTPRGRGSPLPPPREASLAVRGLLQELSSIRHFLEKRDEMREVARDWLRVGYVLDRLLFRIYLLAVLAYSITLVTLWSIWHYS

How the values were obtained:
[1] = molecular target: T1, α7^L131G,Q139L,Y217F-5HT3 H163F (Homo sapiens, UniProt P36544, H163F/L131G/M226I/Q139L/T225I/Y217F); experiment: EC50 dose response, PSAM4-5HT3 with additional mutations; assay type: cell-based; settings: additional mutation H163F; read-out: EC50s (SEM) for additional mutations of α7^L131G, Q139L, Y217F -5HT3
T1 construct: expressed in transfected cells; host or cells: HEK 293

[2] = molecular target: T2, α7^L131G,Q139L,Y217F-5HT3 H163T (Homo sapiens, UniProt P36544, H163T/L131G/M226I/Q139L/T225I/Y217F); experiment: as above; assay type: cell-based; settings: additional mutation H163T; read-out: EC50s (SEM) for additional mutations of α7^L131G, Q139L, Y217F -5HT3
T2 construct: expressed in transfected cells; host or cells: HEK 293

[3] = molecular target: T3, α7^L131G,Q139L,Y217F-5HT3 H163T, S172A (Homo sapiens, UniProt P36544, H163T/L131G/M226I/Q139L/S172A/T225I/Y217F); experiment: as above; assay type: cell-based; settings: read-out: EC50s (SEM) for additional mutations of α7^L131G, Q139L, Y217F -5HT3
T3 construct: expressed in transfected cells; host or cells: HEK 293

[4] = molecular target: T4, α7^L131G,Q139L,Y217F-5HT3 H163V (Homo sapiens, UniProt P36544, H163V/L131G/M226I/Q139L/T225I/Y217F); experiment: as above; assay type: cell-based; settings: additional mutation H163V; read-out: EC50s (SEM) for additional mutations of α7^L131G, Q139L, Y217F -5HT3
T4 construct: expressed in transfected cells; host or cells: HEK 293

[5] = molecular target: T5, α7^L131G,Q139L,Y217F-5HT3 H163S (Homo sapiens, UniProt P36544, H163S/L131G/M226I/Q139L/T225I/Y217F); experiment: as above; assay type: cell-based; settings: additional mutation H163S; read-out: EC50s (SEM) for additional mutations of α7^L131G, Q139L, Y217F -5HT3
T5 construct: expressed in transfected cells; host or cells: HEK 293

[6] = molecular target: T6, α7^L131G,Q139L,Y217F-5HT3 S172V (Homo sapiens, UniProt P36544, L131G/M226I/Q139L/S172V/T225I/Y217F); experiment: as above; assay type: cell-based; settings: additional mutation S172V; read-out: EC50s (SEM) for additional mutations of α7^L131G, Q139L, Y217F -5HT3
T6 construct: expressed in transfected cells; host or cells: HEK 293

[7] = molecular target: T7, α7^L131G,Q139L,Y217F-5HT3 V154I, R155Y, W156N (Homo sapiens, UniProt P36544, L131G/M226I/Q139L/R155Y/T225I/V154I/W156N/Y217F); experiment: as above; assay type: cell-based; settings: read-out: EC50s (SEM) for additional mutations of α7^L131G, Q139L, Y217F -5HT3
T7 construct: expressed in transfected cells; host or cells: HEK 293

[8] = molecular target: T8, α7-5HT3 L131G, Q139L, W171F (Homo sapiens, UniProt P36544, L131G/M226I/Q139L/T225I/W171F); experiment: EC50 dose response, α7-5HT3 mutant; assay type: cell-based; settings: read-out: EC50s (SEM) for additional mutations of α7^L131G, Q139L, Y217F -5HT3
T8 construct: expressed in transfected cells; host or cells: HEK 293

[9] = molecular target: T9, α7^L131G,Q139L,Y217F-5HT3 H163K (Homo sapiens, UniProt P36544, H163K/L131G/M226I/Q139L/T225I/Y217F); experiment: EC50 dose response, PSAM4-5HT3 with additional mutations; assay type: cell-based; settings: additional mutation H163K; read-out: EC50s (SEM) for additional mutations of α7^L131G, Q139L, Y217F -5HT3
T9 construct: expressed in transfected cells; host or cells: HEK 293

[10] = molecular target: T10, α7^L131G,Q139L,Y217F-5HT3 W156N, H163T (Homo sapiens, UniProt P36544, H163T/L131G/M226I/Q139L/T225I/W156N/Y217F); experiment: as above; assay type: cell-based; settings: read-out: EC50s (SEM) for additional mutations of α7^L131G, Q139L, Y217F -5HT3
T10 construct: expressed in transfected cells; host or cells: HEK 293

[11] = molecular target: T11, α7^L131G,Q139L,Y217F-5HT3 V154I, R155Y, W156N, S172V (Homo sapiens, UniProt P36544, L131G/M226I/Q139L/R155Y/S172V/T225I/V154I/W156N/Y217F); experiment: as above; assay type: cell-based; settings: read-out: EC50s (SEM) for additional mutations of α7^L131G, Q139L, Y217F -5HT3
T11 construct: expressed in transfected cells; host or cells: HEK 293

[12] = molecular target: T12, α7^L131G,Q139L,Y217F-5HT3 S172I (Homo sapiens, UniProt P36544, L131G/M226I/Q139L/S172I/T225I/Y217F); experiment: as above; assay type: cell-based; settings: additional mutation S172I; read-out: EC50s (SEM) for additional mutations of α7^L131G, Q139L, Y217F -5HT3
T12 construct: expressed in transfected cells; host or cells: HEK 293

[13] = molecular target: T13, α7^L131G,Q139L,Y217F-5HT3 H163D (Homo sapiens, UniProt P36544, H163D/L131G/M226I/Q139L/T225I/Y217F); experiment: as above; assay type: cell-based; settings: additional mutation H163D; read-out: EC50s (SEM) for additional mutations of α7^L131G, Q139L, Y217F -5HT3
T13 construct: expressed in transfected cells; host or cells: HEK 293

[14] = molecular target: T14, α7^L131G,Q139L,Y217F-5HT3 H163N (Homo sapiens, UniProt P36544, H163N/L131G/M226I/Q139L/T225I/Y217F); experiment: as above; assay type: cell-based; settings: additional mutation H163N; read-out: EC50s (SEM) for additional mutations of α7^L131G, Q139L, Y217F -5HT3
T14 construct: expressed in transfected cells; host or cells: HEK 293

[15] = molecular target: T15, α7^L131G,Q139L,Y217F-5HT3 W156N (Homo sapiens, UniProt P36544, L131G/M226I/Q139L/T225I/W156N/Y217F); experiment: cell-based
T15 construct: expressed in transfected cells; host or cells: HEK 293

[16] = molecular target: T16, α7^L131G,Q139L,Y217F-5HT3 V154I, R155Y, W156N, S172A (Homo sapiens, UniProt P36544, L131G/M226I/Q139L/R155Y/S172A/T225I/V154I/W156N/Y217F); experiment: EC50 dose response, PSAM4-5HT3 with additional mutations; assay type: cell-based; settings: read-out: EC50s (SEM) for additional mutations of α7^L131G, Q139L, Y217F -5HT3
T16 construct: expressed in transfected cells; host or cells: HEK 293

[17] = molecular target: T17, α7-5HT3 L131G, Q139L, W171Y (Homo sapiens, UniProt P36544, L131G/M226I/Q139L/T225I/W171Y); experiment: EC50 dose response, α7-5HT3 mutant; assay type: cell-based; settings: read-out: EC50s (SEM) for additional mutations of α7^L131G, Q139L, Y217F -5HT3
T17 construct: expressed in transfected cells; host or cells: HEK 293

[18] = molecular target: T18, α7-5HT3 L131G, Q139L, Y217H (Homo sapiens, UniProt P36544, L131G/M226I/Q139L/T225I/Y217H); experiment: EC50 dose response, α7-5HT3 mutant; assay type: cell-based; settings: read-out: EC50s (SEM) for additional mutations of α7^L131G, Q139L, Y217F -5HT3
T18 construct: expressed in transfected cells; host or cells: HEK 293

[19] = molecular target: T19, α7-5HT3 L131G, Q139L, Y217A (Homo sapiens, UniProt P36544, L131G/M226I/Q139L/T225I/Y217A); experiment: EC50 dose response, α7-5HT3 mutant; assay type: cell-based; settings: read-out: EC50s (SEM) for additional mutations of α7^L131G, Q139L, Y217F -5HT3
T19 construct: expressed in transfected cells; host or cells: HEK 293

[20] = molecular target: T20, α7^L131G,Q139L,Y217F-5HT3 S172A (Homo sapiens, UniProt P36544, L131G/M226I/Q139L/S172A/T225I/Y217F); experiment: EC50 dose response, PSAM4-5HT3 with additional mutations; assay type: cell-based; settings: additional mutation S172A; read-out: EC50s (SEM) for additional mutations of α7^L131G, Q139L, Y217F -5HT3
T20 construct: expressed in transfected cells; host or cells: HEK 293

[21] = molecular target: T21, α7-5HT3 L131G, Q139L, Y217N (Homo sapiens, UniProt P36544, L131G/M226I/Q139L/T225I/Y217N); experiment: EC50 dose response, α7-5HT3 mutant; assay type: cell-based; settings: read-out: EC50s (SEM) for additional mutations of α7^L131G, Q139L, Y217F -5HT3
T21 construct: 5HT3 ion pore domain (fusion partner); expressed in transfected cells

[22] = molecular target: T22, α7^L131G,Q139L,Y217F-5HT3 V154L, R155Y, W156Q (Homo sapiens, UniProt P36544, L131G/M226I/Q139L/R155Y/T225I/V154L/W156Q/Y217F); experiment: EC50 dose response, PSAM4-5HT3 with additional mutations; assay type: cell-based; settings: read-out: EC50s (SEM) for additional mutations of α7^L131G, Q139L, Y217F -5HT3
T22 construct: expressed in transfected cells; host or cells: HEK 293

[23] = molecular target: T23, PSAM4-5HT3 (α7-5HT3^L131G,Q139L,Y217F) (Homo sapiens, UniProt P36544, L131G/M226I/Q139L/T225I/Y217F); experiment: EC50 dose response of LGIC ligands on PSAM4-5HT3; assay type: cell-based; settings: read-out: EC50s (SEM) for additional mutations of α7^L131G, Q139L, Y217F -5HT3
T23 construct: expressed in transfected cells; host or cells: HEK 293

[24] = molecular target: T24, α7^L131G,Q139L,Y217F-5HT3 H163R (Homo sapiens, UniProt P36544, H163R/L131G/M226I/Q139L/T225I/Y217F); experiment: EC50 dose response, PSAM4-5HT3 with additional mutations; assay type: cell-based; settings: additional mutation H163R; read-out: EC50s (SEM) for additional mutations of α7^L131G, Q139L, Y217F -5HT3
T24 construct: expressed in transfected cells; host or cells: HEK 293

[25] = molecular target: T25, α7-5HT3 L131G, Q139L, Y217V (Homo sapiens, UniProt P36544, L131G/M226I/Q139L/T225I/Y217V); experiment: EC50 dose response, α7-5HT3 mutant; assay type: cell-based; settings: read-out: EC50s (SEM) for additional mutations of α7^L131G, Q139L, Y217F -5HT3
T25 construct: 5HT3 ion pore domain (fusion partner); expressed in transfected cells; HEK 293 is named only for the electrophysiology

[26] = molecular target: T26, α7^L131G,Q139L,Y217F-5HT3 H163A (Homo sapiens, UniProt P36544, H163A/L131G/M226I/Q139L/T225I/Y217F); experiment: EC50 dose response, PSAM4-5HT3 with additional mutations; assay type: cell-based; settings: additional mutation H163A; read-out: EC50s (SEM) for additional mutations of α7^L131G, Q139L, Y217F -5HT3
T26 construct: expressed in transfected cells; host or cells: HEK 293

[27] = molecular target: T27, α7^L131G,Q139L,Y217F-5HT3 H163T, S172V (Homo sapiens, UniProt P36544, H163T/L131G/M226I/Q139L/S172V/T225I/Y217F); experiment: as above; assay type: cell-based; settings: read-out: EC50s (SEM) for additional mutations of α7^L131G, Q139L, Y217F -5HT3
T27 construct: expressed in transfected cells; host or cells: HEK 293

c1cnc2cc3c(cc2n1)[C@@H]1CNC[C@H]3C1 [Varenicline, varenicline, reference compound]
EC50 [1]: 6.1 nM | EC50 [2]: 24 nM | EC50 [3]: 5.7 nM | EC50 [4]: 7.3 nM | EC50 [5]: 6.4 nM | EC50 [6]: 3.8 nM | EC50 [7]: 8.5 nM | EC50 [8]: > 100 nM | EC50 [9]: 5 nM | EC50 [10]: 9 nM | EC50 [11]: 13 nM | EC50 [12]: 15 nM | EC50 [13]: 3.8 nM | EC50 [14]: 3.6 nM | EC50 [15]: 7.5 nM | EC50 [16]: 11 nM | EC50 [17]: > 100 nM | EC50 [18]: > 100 nM | EC50 [19]: > 100 nM | EC50 [20]: 4.9 nM | EC50 [21]: > 100 nM | EC50 [22]: 7.5 nM | EC50 ([23]; PSAM4-5HT3 (no additional mutation)): 3.6 nM | EC50 ([23]; line L131G, Q139L, Y217F (same values as PSAM4-5HT3 line)): 3.6 nM | EC50 [24]: 6.1 nM | EC50 [25]: > 100 nM | EC50 [26]: 5.4 nM | EC50 [27]: 9 nM
